Experimental data from US10428044B2, “3-amino-1,5,6,7-tetrahydro-4H-indol-4-ones” (Bayer Pharma Aktiengesellschaft, priority 2014, dated 2019).

The chains behind the UniProt entries cited, without tags or fusion partners. Residues count along the entry.
UniProt O43683, 704-1085 limits assumed: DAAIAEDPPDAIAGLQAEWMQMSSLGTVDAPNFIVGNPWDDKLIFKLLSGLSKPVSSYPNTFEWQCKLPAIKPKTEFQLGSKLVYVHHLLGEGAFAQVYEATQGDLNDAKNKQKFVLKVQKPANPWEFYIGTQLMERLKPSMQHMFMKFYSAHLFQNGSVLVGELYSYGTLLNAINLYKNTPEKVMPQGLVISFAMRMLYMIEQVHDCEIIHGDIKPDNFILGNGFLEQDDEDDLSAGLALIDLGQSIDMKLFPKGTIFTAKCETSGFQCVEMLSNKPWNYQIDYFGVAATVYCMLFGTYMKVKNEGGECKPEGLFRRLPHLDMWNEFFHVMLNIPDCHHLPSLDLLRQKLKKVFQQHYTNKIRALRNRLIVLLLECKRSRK

Target: (recombinant) catalytic domain of human Bub1 (amino acids 704-1085) (Homo sapiens (Human), UniProt O43683)
Test: Bub1 kinase assay (TR-FRET)
Conditions: read-out: Biological Assay: Bub1 kinase assay median IC50, ATP 10 μM final, peptide substrate 1 μM final, 60 min at 22° C.

IC50: 5.35 nM
Structure (SMILES): CC1(C)CC(=O)c2c([nH]c(-c3ccnc(NC(=O)C4CC4F)c3)c2Nc2ccccc2)C1 (single isomer, unassigned) [Example 255]
